High-throughput results deposited in PubChem by National Center for Advancing Translational Sciences (NCATS).
uPA surface inh = inhibitors of cell surface uPA generation | cell surface uPA generation assay, qHTS | Potency, µM (top dose mostly 38.3 µM), for inactives: at the top dose activity change, negative = inhibition, usual class: inhibitors | actives 0.31% (n = 330,000) | AID 540303; active means well fitted inhibition curve with a large enough effect; inconclusive means small, poorly fitted or top-dose-only effect; inactive means no such curve, though single readings can be large or run the other way; tested in mouse RAW 264.7 cells; further: potency means the concentration at half of the fitted maximal effect; on the % scale 0 is the no-effect control and ±100 the full control effect; nearly all actives have a fitted effect of over 55% in size
miR-21 reporter = miR-21 reporter, rising signal. HeLa miR-21 FLuc reporter, luciferase, 48 h. Potency, µM (highest dose often 38.3 µM), for the others: at the highest dose reporter change, positive = more light. 340,000 tested, under 10 active. AID 2288; active = well fitted rising curve with a large enough effect; inconclusive = small, poorly fitted or top-dose-only effect; inactive = no such curve, though single readings can be large or run the other way;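 further: % of control where 0% means no effect; miR-21 action dims this reporter so a rising signal means less miR-21 action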
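HeLa cells endogenously expressing miR-21, stably carrying CMV-driven firefly luciferase with a downstream miR-21 binding site, 2000 cells/well. Titrations up to approximately 40 uM, 48 hours; luciferase luminescence read.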
DT40 TDP1 CPT = growth inhibition of DT40 Tdp1-/-;hTDP1 cells with camptothecin (screen for TDP1 inhibitors). chicken DT40 Tdp1-/-;hTDP1 cells + 20 nM CPT, ATP luminescence, 48 h. Potency, µM (series often up to 46.2 µM), inactives show at the highest dose activity change, negative = growth inhibition, usual class: inhibitors. actives 12% (n = 420,000); further: potency means the concentration at half of the fitted maximal effect; on the % scale 0 is the no-effect control and ±100 the full control effect; nearly all actives have a fitted effect of over 55% in size
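Chicken DT40 Tdp1-/- cells complemented with human TDP1, 400 cells/well, exposed to compounds plus 20 nM camptothecin for at least 48 h at 37 C; viability read as ATP content by CellTiter-Glo luminescence.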
TDP1 cell noCPT = qHTS for Inhibitors of human tyrosyl-DNA phosphodiesterase 1 (TDP1): qHTS in cells in absence of CPT. Potency, µM (top dose mostly 46.2 µM), for the others: at the highest dose activity change, negative = growth inhibition, most hits filed as inhibitors. DT40 Tdp1-/- hTDP1 cells, no CPT, ATP luminescence, 48 h. actives 15% (n = 420,000); further: potency means the concentration at half of the fitted maximal effect; on the % scale 0 is the no-effect control and ±100 the full control effect; nearly all actives have a fitted effect of over 55% in size
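Readout: luminescence from CellTiter-Glo after 30 min in the dark at RT. Cells: DT40 Tdp1-/- with stable hTDP1, 400/well. Exposure: compounds alone, ≥48 hr, 37 °C.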
TDP1 block = TDP1 (human) enzyme inhibition. recombinant TDP1, AlphaScreen DNA substrate cleavage. Potency, µM (series often up to 130 µM), inactives show top-dose activity change, negative = inhibition, most hits filed as inhibitors. actives 0.28% (n = 350,000). AID 485290; further: potency means the concentration at half of the fitted maximal effect; on the % scale 0 is the no-effect control and ±100 the full control effect; nearly all actives have a fitted effect of over 40% in size
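Signal: AlphaScreen proximity between streptavidin donor and anti-FITC acceptor beads on intact substrate. Reaction: Tdp1 1 nM, substrate 15 nM final, 5 min RT after 15 min compound preincubation.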
An asterisk follows results filed as active; u = inconclusive; x = no result given; [ ] = dose if it differs, or a comment. An excerpt weighted towards active compounds, which were near 16% of everything screened. Unless noted, the call rests on the fitted dose curve; in most records, active means well fitted curve in the direction sought with a large enough effect; inconclusive means small, poorly fitted or top-dose-only effect, or another doubt; inactive means no such curve, though single readings can be large; an effect the other way counts as inactive or inconclusive.

#1 CCOC(=S)SCC(=O)Nc1nc(C)c(C)s1
#2 CC(C)NC(=S)N/N=C1\CCCCc2ccccc21
#3 S=C(NC1CCCCC1)N1CCc2ccccc2C1
#4 S=C(N/N=C1\CCc2ccccc21)NC1CCCCC1
#5 Cc1noc(C)c1C(=O)N1CCC[C@@]2(CCN(c3cccc(-c4ccccc4)c3)C2)C1
#6 Cc1noc(C)c1C(=O)N1CCC2(CCCN(C(c3ccccc3)c3ccccc3)C2)CC1
#7 Cc1noc(C)c1C(=O)N1CCC2(CCCN(Cc3ccccc3)C2)CC1
#8 COc1ccccc1NS(=O)(=O)c1cc(NC(=O)C2=NNC(=O)CC2)ccc1C
entry no.	1	2	3	4	5	6	7	8
uPA surface inh	u	9%	-5%	u	x	x	x	-1%
miR-21 reporter	1%	-3%	-20%	-44%	x	x	x	x
DT40 TDP1 CPT	16µM*	u	u	u	16µM*	u	4%	-10%
TDP1 cell noCPT	21µM*	21µM*	u	23µM*	18µM*	23µM*	-7%	-23%
TDP1 block	4%	5%	1%	8%	x	x	x	0%

#9 CC(C)COc1ccc(C(=O)Nc2onc3c2CCCC3)cc1
#10 CCOC(=O)N1CCC(NC(=O)c2cc3c(-c4ccccc4F)nn(C)c3s2)CC1
#11 CCOC(=O)C1CCN(C(=O)c2cc3c(-c4ccc(OC)c(OC)c4)nn(C)c3s2)CC1
#12 CCOC(=O)N1CCC(NC(=O)c2cc3c(-c4ccc(OC)c(OC)c4)nn(C)c3s2)CC1
#13 CCOC(=O)C1CCN(C(=O)Cc2ccc(OC)c(OC)c2)CC1
#14 CC1CCCCN1CCNC(=O)c1cc2c(-c3ccccc3F)nn(C)c2s1 (stereo unspecified)
#15 COc1ccc(NC(=S)N2CCN(C/C=C/c3ccccc3)CC2)cc1
#16 CCOc1ccc(NS(=O)(=O)c2cccc(C(=O)N3CCN(C/C=C/c4ccccc4)CC3)c2)cc1
entry no.	9	10	11	12	13	14	15	16
uPA surface inh	x	-13%	2%	-2%	0%	-24%	-9%	-9%
miR-21 reporter	u	1%	-6%	0%	-1%	-34%	-4%	x
DT40 TDP1 CPT	13µM*	13µM*	16µM*	u	-2%	u	-2%	u
TDP1 cell noCPT	23µM*	8.2µM*	21µM*	21µM*	-20%	u	u	16µM*
TDP1 block	6%	3%	0%	2%	1%	1%	5%	x

#17 CCOc1ccc(NC(=S)N2CCN(C/C=C/c3ccccc3)CC2)cc1
#18 NC(=O)c1c(NC(=O)COC(=O)c2ccc(S(=O)(=O)Nc3ccccc3)cc2)sc2c1CCCC2
#19 CCCCCCCCCC(=O)N[C@@H]1c2cc(OC)c(OC)cc2C[C@H]1OCc1ccccc1
#20 COc1cc2c(cc1OC)[C@@H](NC(=O)CCc1ccccc1)[C@H](OCc1ccccc1)C2
#21 COc1ccccc1CN1CCNC(=O)C1CC(=O)NCCCN1CCOCC1 (stereo unspecified)
#22 Cc1cc(-c2cc(-c3ccc(Cl)cc3)on2)nc(NCC2CC2)n1
#23 CC(C)c1ccc(CNc2nc(NCC3CC3)nc3ccsc23)cc1
#24 COc1cccc(CNc2nc(NC(C)C)nc3ccsc23)c1OC
entry no.	17	18	19	20	21	22	23	24
uPA surface inh	0%	-2%	3%	7%	x	-2%	x	x
miR-21 reporter	0%	0%	x	x	x	5%	x	x
DT40 TDP1 CPT	u	u	-17%	10µM*	-1%	u	9.2µM*	18µM*
TDP1 cell noCPT	18µM*	-26%	-14%	u	3%	-11%	10µM*	21µM*
TDP1 block	5%	3%	0%[56.1 µM]	0%[56.1 µM]	x	4%	x	x

#25 COc1ccccc1CNc1nc(NCc2ccc(C(C)C)cc2)c2sccc2n1
#26 COc1cccc(CNc2nc(NCC3CC3)nc3ccsc23)c1OC
#27 COc1cccc(CNc2nnnn2C)c1OC
#28 C/C(=N\n1nnnc1Nc1ccccc1)c1ccc(N)cc1
#29 COc1ccccc1CNc1nc(NC(C)C)nc2ccsc12
#30 CSc1ccccc1CNc1nc(NCC2CC2)nc2ccsc12
#31 CN(C)CCNc1nc(-c2ccccc2F)c2sccc2n1
#32 CC(C)Nc1nc(NCCOc2ccccc2)c2sccc2n1
entry no.	25	26	27	28	29	30	31	32
uPA surface inh	x	x	1%	x	x	x	x	x
miR-21 reporter	x	x	3%	-14%	x	x	x	x
DT40 TDP1 CPT	9.2µM*	9.2µM*	-16%	x	12µM*	15µM*	u	21µM*
TDP1 cell noCPT	2.9µM*	15µM*	-1%	x	12µM*	21µM*	-29%	9.2µM*
TDP1 block	x	x	x	9%	x	x	x	x

An excerpt of these results, with two lines to a compound.
Results follow in this order: uPA surface inh | miR-21 reporter | DT40 TDP1 CPT | TDP1 cell noCPT | TDP1 block
(19) CCCCCCCCCC(=O)N[C@@H]1c2cc(OC)c(OC)cc2C[C@H]1OCc1ccccc1
→ 3% | x | -17% | -14% | 0%[56.1 µM]
(20) COc1cc2c(cc1OC)[C@@H](NC(=O)CCc1ccccc1)[C@H](OCc1ccccc1)C2
→ 7% | x | 10µM* | u | 0%[56.1 µM]
(21) COc1ccccc1CN1CCNC(=O)C1CC(=O)NCCCN1CCOCC1 (stereo unspecified)
→ x | x | -1% | 3% | x
